# Assay results published in PubChem BioAssay AID463193 (University of Pittsburgh Molecular Library Screening Center, 2010).
# The list shows a part of the results, in another mix than the full data. Activity calls are given as the source filed them.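 Rule for the calls: active = percentage of spot-positive cells more than 3 SD above its plate mean, without a fluorescence outlier flag or 80% toxicity; inconclusive = no clear call, values can overlap the other calls; inactive = the rest.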
# Experiment: GFP-LC3 puncta formation changes – imaging, high-content, MEF GFP-LC3, primary screen (AID 463193);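 note: spot-positive cell cutoff set from DMSO-treated cells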
# Conditions: autophagy, at 10 µM, active compounds read high
row,SMILES,% cells with GFP-LC3 spots
1,O=P(Nc1nccs1)(c1ccccc1)c1nc2ccccc2s1 (centres undefined),inactive: 9.09%
2,COc1ccccc1OP(C)(=O)Nc1c(C)cccc1C (centres undefined),inactive: 7.27%
3,CN1CCCCC1COC(=O)C1(O)c2ccccc2CCc2ccccc21 (centres undefined),inactive: 5.3%
4,O=P1(Nc2ncccn2)COc2ccccc2OC1,inactive: 5.01%
5,Cc1ccc(OCC(=O)OC2CN3CCC2CC3)cc1 (centres undefined),inactive: 8.01%
6,O=P1(Nc2ccc(Br)cn2)COc2ccccc2OC1,inactive: 1.41%
7,CCCOc1ccc(NP(C)(=O)Oc2ccc(Cl)cc2)cc1 (centres undefined),inactive: 5.73%
8,CP(=O)(Nc1ccc(SC(F)(F)F)cc1)Oc1ccccc1 (centres undefined),inactive: 3.37%
9,COc1cc(C2NCCC3(OCCO3)C2(C)C)cc(OC)c1OC.O=[N+]([O-])c1cc([N+](=O)[O-])c(O)c([N+](=O)[O-])c1 (centres undefined),inactive: 9.08%
10,Cc1nn(-c2ccccc2)c2c1P(=O)(N1CCOCC1)N(C)C(c1ccccc1)=N2 (centres undefined),inactive: 10.7%
11,CC1CCC(C(C)C)C(OP(=O)(Nc2ccccn2)c2ccccc2)C1 (centres undefined),inactive: 1.4%
12,CN(C)C1(CNC(=O)c2ccc(S(C)(=O)=O)cc2)CCCCC1,inactive: 15.8%
13,Cc1nc2ccc3ccccc3c2s1.O=[N+]([O-])c1cc([N+](=O)[O-])c(O)c([N+](=O)[O-])c1,inactive: 1.2%
14,CC1(CBr)Cn2c(nc3ccccc3c2=O)S1 (centres undefined),inactive: 3.57%
15,CC(C)/C=N\N=C(\N)N[N+](=O)[O-],inactive: 7.02%
16,O=P1(Nc2ccccn2)COc2ccccc2OC1,inactive: 2.76%
17,O=[N+]([O-])c1cc([N+](=O)[O-])c(-n2nnc3ccccc32)c([N+](=O)[O-])c1,inactive: 1.25%
18,Clc1n[nH]nc1-c1nn[nH][15n]1,inactive: 9.97%
19,CCOC(=O)c1ccc(NP(C)(=O)Oc2ccc(OC)cc2)cc1 (centres undefined),inactive: 5.65%
20,CCOP(C)(=S)SCC(=O)NC(C)C(=O)O (centres undefined),inactive: 1.26%
21,CP(=O)(Nc1ccccn1)Oc1ccc(Cl)cc1 (centres undefined),inactive: 0.456%
22,CCC(C)N(CC(C)C)C(=S)SC(NC(C)=O)C(Cl)(Cl)Cl (centres undefined),inactive: 3.72%
23,COP1(=S)c2c(C)nn(CCC#N)c2N=C(c2ccc(F)cc2)N1C (centres undefined),inactive: 10.8%
24,Cc1cccc(C)c1OP(C)(=O)Nc1ccc(SC(F)(F)F)cc1 (centres undefined),inactive: 5.59%
25,CP(=O)(Oc1ccccc1)OC(c1ccccc1)C(F)(F)F (centres undefined),inactive: 0%
26,O=C(COc1ccccc1)OC1CN2CCC1CC2 (centres undefined),inactive: 2.54%
27,CP(=O)(NC(=O)Nc1ccccc1)Oc1ccccc1 (centres undefined),inactive: 5.95%

row,SMILES,% cells with GFP-LC3 spots
1,Cc1cc(C)cc(OP(C)(=O)Nc2ccc(SC(F)(F)F)cc2)c1 (centres undefined),inactive: 17.8%
2,CP(=S)(Nn1cnnc1)Oc1ccccc1 (centres undefined),inactive: 3.58%
3,CP(=O)(Nc1ccccc1Br)Oc1ccccc1 (centres undefined),inactive: 1.93%
4,O=P(Nc1ccccn1)(c1cccc2ccccc12)c1cccc2ccccc12,inactive: 17%
5,Cc1cc(SC(NC=O)C(Cl)(Cl)Cl)ncn1 (centres undefined),inactive: 5.89%
6,COc1ccccc1OP(C)(=O)Nc1ccccc1 (centres undefined),inactive: 25.2%
7,Cc1cc(SC(NC(=O)c2ccccc2)C(Cl)(Cl)Cl)nc(C(C)C)n1 (centres undefined),inactive: 5.51%
8,COc1ccccc1OP(C)(=O)Nc1ccc(C)cc1 (centres undefined),inactive: 2.37%
9,Cc1ccc(NP(C)(=O)Oc2ccccc2)c(C)c1 (centres undefined),inactive: 7.19%
10,CCOC(=O)c1ccc(NP(C)(=O)Oc2ccccc2)cc1 (centres undefined),inactive: 4.15%
11,ClCCSc1nnc(-c2cccnc2)o1,inactive: 11.8%
12,Cc1cc(C)cc(OP(C)(N)=O)c1 (centres undefined),inactive: 1.5%
13,COc1ccccc1OP(C)(=O)Nc1cc(Cl)ccc1C (centres undefined),inactive: 0.791%
14,CC(C)NC(=O)NP(=O)(Oc1ccccc1)Oc1ccccc1,inactive: 7.99%
15,CCN(CC)C(=S)SC(NC=O)C(Cl)(Cl)Cl (centres undefined),inactive: 1.54%
16,COc1ccc(OP(C)(=O)Nc2cccc(F)c2)cc1 (centres undefined),inactive: 2.61%
17,O=[N+]([O-])c1cc([N+](=O)[O-])c(-c2ccn[nH]2)s1,inactive: 23.3%
18,O=[N+]([O-])c1ccc2c(c1)C=Nc1ccccc1O2,inactive: 5.61%
19,Cc1ccc2nc3c(c(C)c2c1)CC(C(Cl)Cl)S3 (centres undefined),inactive: 2.47%
20,CC(C)(C)c1ccc(OP(C)(=O)Nc2ccc(SC(F)(F)F)cc2)cc1 (centres undefined),inactive: 9.81%
21,Cc1cccc(C)c1OP(C)(N)=O (centres undefined),inactive: 8.98%
22,COc1ccc(N/C(=N/P(=O)(N2CCOCC2)N2CCOCC2)N2CCOCC2)cc1,inactive: 2.58%
23,O=C(OC1CN2CCC1CC2)C12CC3CC(CC(C3)C1)C2 (centres undefined),inactive: 7.75%
24,CCN(CC)CCCOC(=O)C(O)(c1ccccc1)c1ccccc1,inactive: 0.921%
25,Cc1cc(=O)[nH]c(N[N+](=O)[O-])n1,inactive: 1.66%
26,Cc1c2c(nc3ccccc13)SC(C(Cl)Cl)C2 (centres undefined),inactive: 4.4%
27,COc1ccc2nc(NP(=O)(c3ccccc3)c3ccccc3)sc2c1,inactive: 1.29%
